Tests used:
HaCaT cells = assay: annexin-V/PI flow cytometry, cetuximab induced cell death in HaCaT cells; assay type: cell-based, human; details: cetuximab alone, 72 hours, one representative experiment
Procedure: The novel approach proposed by the invention is to specifically target and block the effect of the anti-neoplastic biological targeted agents in the skin.
(§1) Apoptosis and cell death were evaluated by annexin-V and propidium-iodide (PI) labeling, followed by flow cytometry.

[1] = test system: phosphorylated EGFR receptor; assay: p-EGFR level by flow cytometry, HaCaT cells treated with EGF and cetuximab; assay type: cell-based, human; details: 20 minutes, EGF and 5 ug/ml cetuximab
Procedure: The novel approach proposed by the invention is to specifically target and block the effect of the anti-neoplastic biological targeted agents in the skin. Cetuximab and panitumumab are known monoclonal antibodies that block EGFR.
(§2) The level of phosphorylated EGFR receptor was measured in cell lines by flow cytometry.

[2] = test system: phosphorylated EGFR receptor; assay: p-EGFR level by flow cytometry, A431 cells treated with EGF and cetuximab; assay type: cell-based; details: 20 minutes, EGF and 5 ug/ml cetuximab
Procedure: as §2

A431 cells = assay: annexin-V/PI flow cytometry, cetuximab induced cell death in A431 cells; assay type: cell-based; details: cetuximab alone, 72 hours, one representative experiment
Procedure: as §1

With “cetuximab: known monoclonal antibody that blocks EGFR [reference compound]” the live cells (HaCaT cells) was 55%, the “activated levels of p-EGFR” value [1] was 15% and the “activated levels of p-EGFR” value [2] was 16.8%. The live cells (A431 cells) was 34.6%.

Reference: patent US20250387378A1, “METHODS AND COMPOSITIONS FOR PREVENTING SKIN TOXICITIES CAUSED BY BIOLOGICAL TARGETED CANCER DRUGS” (Hadasit Medical Research Services & Development Limited, priority 2019, published 2025)
